Target: human CD38 (Homo sapiens, UniProt P28907)
Test: CD38 competition binding assay (fluorescence polarisation)
Settings: Table 1; peptide ligands, molecular scaffold TBMB
Experimental: 1. CD38 Competition Binding Assay
Affinity of the peptides of the invention for human CD38 (Ki) was determined using a fluorescence polarisation assay, using the method reported by Lea et al (Expert Opin Drug Discov. 2011 6(1): 17-3) and using the following fluorescently labelled peptides ACTPCADFPIWGCA-Sar6-K(Fl) ((SEQ ID NO: 93)-Sar6-K(Fl)) for TBMB derivatives where Fl is a fluorescein molecule.

Protein sequences, listed by entry. Tags and fused reporters are not part of them.
UniProt P28907, whole entry: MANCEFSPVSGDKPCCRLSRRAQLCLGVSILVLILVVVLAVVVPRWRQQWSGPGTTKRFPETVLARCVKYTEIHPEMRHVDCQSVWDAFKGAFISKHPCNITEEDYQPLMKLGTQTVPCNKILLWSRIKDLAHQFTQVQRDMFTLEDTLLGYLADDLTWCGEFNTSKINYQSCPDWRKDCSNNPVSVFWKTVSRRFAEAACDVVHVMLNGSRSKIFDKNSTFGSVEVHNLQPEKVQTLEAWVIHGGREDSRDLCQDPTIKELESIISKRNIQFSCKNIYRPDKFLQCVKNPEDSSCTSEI

Question: Which Ki does the source give for “Ac-(SEQ ID NO: 3)-A-Sar6-(PG) [66-03-00-N009]” here?
Answer: The Ki was 60.5 ± 10.8 nM.

— US20220133733A1, “BICYCLIC PEPTIDE LIGANDS SPECIFIC FOR CD38” (BicycleRD Limited, priority 2019, published 2022)
